Test results published in patent US8557308B2, “Andrographis paniculata extract” (Nutrition Science Partners Limited, priority 2007, dated 2013).

Test system: mildly to moderately active ulcerative colitis
Assay: Randomized, double-dummy, active controlled 8-week clinical trial in ulcerative colitis
Type: in vivo, human
Experimental: 120 patients with colonoscopy-confirmed mildly to moderately active ulcerative colitis were assigned to two groups (60 patients/group). […] All other medications were excluded. The therapeutic effects were assessed biweekly using a scale similar to the partial Mayo Scoring System, and the clinical symptom score reduction (≧50% reduction in symptoms) was calculated. Scores were then retrospectively calculated using the standard partial Mayo scores (PMS), clinical response (improvement ≧2 points or final score of 0) and remission (≦1 PMS score at week 8). Colonoscopies at the beginning and at the end of treatment were rated with a modified Baron score, and biopsies taken during colonoscopy were graded histologically with a scale of 0-3.

## Nc1ccc(O)c(C(=O)O)c1 [Etiasa, 5-amino-2-hydroxybenzoic acid]
biopsies, week 8, number of evaluated patients
  patients showing decrease of histological inflammation scores by 25-50%: 6 of the 15
Week 8
  patients entering with elevated C-reactive protein levels that showed normal levels: 4/6
